Patent publication US9532972B2, “Increasing taxane sensitivity in cancer cells” (UNIVERSITY OF CENTRAL FLORIDA RESEARCH FOUNDATION, INC., priority 2012, dated 2017)

Key:
P69 = assay: MTS cell viability assay
MDA-MB-231 = assay: MTS cell viability assay

CC(=O)O[C@@]12CO[C@@H]1C[C@H](O)[C@@]1(C)C(=O)[C@H](O)C3=C(C)[C@@H](OC(=O)[C@H](O)[C@@H](NC(=O)OC(C)(C)C)c4ccccc4)C[C@@](O)([C@@H](OC(=O)c4ccccc4)[C@H]21)C3(C)C [docetaxel]
population of viable cells (P69): smaller population of viable cells
population of viable cells (MDA-MB-231): smaller population of viable cells
